The source of these data is patent publication EP0906294B1 (WARNER-LAMBERT COMPANY, priority 1996, dated 1997).

Chains of the proteins cited; added tags and fusions are not shown. A line that says so, or that is headed by a name, gives the form on record, which may keep a tag or linker.
UniProt P21917, with tags, fused parts or gaps DEL265-296: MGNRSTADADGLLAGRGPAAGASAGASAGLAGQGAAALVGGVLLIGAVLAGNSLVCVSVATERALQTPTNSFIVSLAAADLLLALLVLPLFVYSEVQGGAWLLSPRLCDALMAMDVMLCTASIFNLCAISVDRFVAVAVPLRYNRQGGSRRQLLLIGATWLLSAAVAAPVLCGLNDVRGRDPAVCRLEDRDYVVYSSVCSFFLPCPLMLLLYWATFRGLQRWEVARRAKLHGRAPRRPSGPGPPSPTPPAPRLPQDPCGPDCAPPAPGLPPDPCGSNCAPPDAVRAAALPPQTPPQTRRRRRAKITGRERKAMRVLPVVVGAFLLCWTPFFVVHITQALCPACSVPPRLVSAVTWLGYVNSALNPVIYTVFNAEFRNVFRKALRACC

For the test, the target named is human recombinant dopamine D4.2 receptor subtype (Homo sapiens, UniProt P21917, DEL265-296). The test can be described thus: Receptor binding assay, [3H]spiperone competition, D4.2. The settings on record: for D2/D4 Ratio: ratio of D2 Ki to D4 Ki. How it is done: The D2 receptor cDNA was subcloned into an expression vector, pRc/CMV. The plasmids were transfected by electroporation into CHO K1 cells. A single stable transfectant, resistant to the antibiotic G418, was isolated and selected for use in the binding studies.
Cells were grown until confluent, after which growth medium was removed and replaced with 0.02% ethylene diamine tetracetate (EDTA) in a phosphate-buffered saline solution (Sigma Chemical Co., St. Louis, Missouri) and scraped from the flasks. The cells were centrifuged at about 1000 × g for 10 minutes at […] and then resuspended in TEM buffer (25 mM Tris-HCl, pH 7.4, 5 mM EDTA, and 6 mM MgCl2) for D2 or the D4.2 buffer (50 mM Tris-HCl, pH 7.4, 5 mM EDTA, 1.5 mM CaCl2, 5 mM KCl, and 120 mM NaCl) and homogenized. The membranes were pelleted by centrifugation at 20,000 × g at […] for 20 minutes. Then the pellets were resuspended in appropriate buffer at 1 mL/flask and stored at -70°C until used in the receptor binding assay.
After 60 minutes incubation at 25°C, the incubations were terminated by rapid filtration through Whatmann GF/B glass fibre filters (soaked for 1 hour in 0.5% polyethylenimine) on a -cell harvester, with three washes of 1 mL ice-cold buffer. Individual filter disks containing the bound ligand were placed in counting vials with 4 mL of scintillation fluid (Ready Gel, Beckman Instrument Inc., Fullerton, California) and then counted in a Beckman LS-6800 liquid scintillation counter at an efficiency of 45%. Nonspecific binding was defined in presence of […] of haloperidol.
Saturation and competition binding data were analyzed using an iterative nonlinear least-square curve-fitting Ligand program. […] Experimental compounds were made up as stock solutions in dimethyl sulfoxide (DMSO). […] Each observation was carried out in triplicate. To allow these calculations, Ki values were measured for the interaction of various ligands with the receptor. […]

On to `COc1ccc(C2CCN(Cc3ccc4c(c3)NC(=O)CO4)CC2)cc1` [Example 37, 6-[4-(4-Methoxy-phenyl) -piperidin-1-ylmethyl]-4H-benzo[1,4]oxazin-3-one], for which the inhibition constant Ki turned out to be 3.87 nM and the “D2/D4 Ratio” value is listed as 180.4.
With `Cc1ccc(N2CCN(Cc3ccc4c(c3)NC(=O)CO4)CC2)cc1C` [Example 5, 6-[4-(3,4-Dimethyl-phenyl)-piperazin-1-ylmethyl]-4H-benzo[1,4]oxazin-3-one], the Ki amounted to 5.18 nM.
For `Cc1ccc(N2CCN(Cc3ccc4c(c3)OCC(=O)N4)CC2)cc1` [Example 12, 7-(4-p-Tolyl-piperazin-1-ylmethyl)-4H-benzo[1,4]oxazin-3-one], the inhibition constant Ki was 10.7 nM.
As to `Cc1ccc(N2CCN(Cc3ccc4c(c3)OCC(=O)N4)CC2)cc1C` [Example 14, 7-[4-(3,4-dimethyl-phenyl)-piperazin-1-ylmethyl]-4H-benzo[1,4]oxazine-3-one], the Ki amounted to 6.94 nM and the “D2/D4 Ratio” value was 49.9.

Usually Ki stands for the equilibrium dissociation constant of an inhibitor or competing ligand from its target.
